From article PMC3079430 (Journal of medicinal chemistry, 2010) come the findings set out here.

The test system of one assay is HL-60 promyelocytes. As to the kind of experiment: HL-60 cell differentiation assay. Format: cell-based. To be noted: average ratio of the analog EC50 to the EC50 for 1α,25-(OH)2D3.
Assay [1] relates to 24-hydroxylase gene reporter plasmid in rat osteosarcoma cells. Briefly: 24-hydroxylase transcription assay. To be noted: average ratio of the EC50 for the analog to the EC50 for 1α,25-(OH)2D3.

For `C=C1/C(=C\C=C2/CCC[C@]3(C)[C@@H]([C@H](C)CCCC(C)(C)O)CC[C@@H]23)C[C@@H](O)C[C@@H]1O` [Compound 1, 1α,25-Dihydroxyvitamin D3, reference compound], the HL-60 differentiation ratio in the assay on HL-60 promyelocytes was 1. For the same compound, the 24-OHase transcription ratio in assay [1] came to 1.
